According to patent publication US20220054617A1, “SUBUNIT VACCINE CONSTRUCTS FOR FLAVIVIRUSES” (priority 2018, published 2022):

Legend:
[1] = site of injection and draining lymph node
[2] = equivalent doses; reporter mouse model

covalent conjugate of an imidazoquinoline TLR7/TLR8 dual agonist [5-(3-(aminomethyl)benzyl)-3-pentylquinolin-2-amine] with hyaluronic acid [EY-4-143]
release of the TLR7/8 agonist (depot effect) [1]: low-level, but sustained release | systemic exposure relative to the unconjugated imidazoquinolines [2]: very small
